From PubChem BioAssay AID2029 (NMMLSC, 2009)
This is a selection; strong and weak results do not stand in their true shares. Some tests of the compounds listed are not included; inactive here does not mean inactive elsewhere. Calls of active or inactive are those of the source.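 The calls were made as follows: active = GFP response relative to DMSO above a set limit, near the screen mean plus 3 SD (cut at about 150% in these data); inconclusive = Fewer than 70 cells measured for a yeast strain; inactive = the rest.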

Test: modulators of CIT2-GFP expression in yeast, primary screen, S. cerevisiae, GFP fusion, multiplex flow cytometry, MLPCN library (AID 2029);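 also: ratio of well median GFP fluorescence to mean of DMSO wells on the plate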
Conditions: S. cerevisiae CIT2-GFP strain, 3 h, at 10 µM, hits give high values, 100 means same as DMSO wells

| SMILES | GFP response vs DMSO |
| --- | --- |
| Cc1ccccc1C(=O)NCC1(N2CCCCC2)CCCCC1 | inactive: 95.6% |
| CN(C)C1CCCC1OC(=O)C(O)(c1ccccc1)c1ccccc1 (stereo not drawn) | inactive: 114% |
| CN(C)c1ccc(C(=O)NCC2(N(C)C)CCCCC2)cc1 | inactive: 108% |
| C=CCN1CCN(CCOC(=O)C(O)(c2ccccc2)c2ccccc2)CC1 | inactive: 95.1% |
| O=C(NCC1(N2CCCCC2)CCCCC1)c1cc(F)c(F)cc1Cl | inactive: 90.8% |
| COc1ccc(C(=O)NCC2(N(C)C)CCCCC2)cc1 | inactive: 102% |
| CCN1CCCC(OC(=O)C2(O)c3ccccc3C=Cc3ccccc32)C1 (stereo not drawn) | inactive: 97% |
| O=C(NCC1(N2CCCCC2)CCCCC1)c1cccc(Br)c1 | inactive: 109% |
| O=C(NCC1(N2CCCCC2)CCCCC1)c1cc([N+](=O)[O-])ccc1Cl | inactive: 106% |
| CN1[C@@H]2CC[C@H]1CC(OC(=O)C(O)(c1ccccc1)c1ccccc1)C2 (stereo partly drawn) | inactive: 96.2% |
| CCN(CC)CC(C)C(C)OC(=O)C(O)(c1ccccc1)c1ccccc1 (stereo not drawn) | inactive: 92.8% |
| COc1cc(SC)ccc1C(=O)NCC1(N(C)C)CCCCC1 | inactive: 110% |
| CC(C)N1C(=O)CC2(CCN(CCOC(=O)C(O)(c3ccccc3)c3ccccc3)CC2)C1=O | inactive: 99.3% |
| Cc1ccc(C(=O)NCC2(N3CCCCC3)CCCCC2)cc1 | inactive: 97.3% |
| O=C(OC1CN2CCC1CC2)C(CO)(c1ccccc1)c1ccccc1 (stereo not drawn) | inactive: 104% |
| COc1ccc(Br)c(C(=O)NCC2(N3CCCCC3)CCCCC2)c1 | inactive: 102% |
| CC(C)Oc1ccc(C(=O)NCC2(N(C)C)CCCCC2)cc1 | inactive: 103% |
| CN(C)c1cccc(C(=O)NCC2(N(C)C)CCCCC2)c1 | inactive: 116% |
| CN(C)C1(CNC(=O)c2ccc(Br)cc2)CCCCC1 | inactive: 100% |
| COc1cc(C(=O)NCC2(N(C)C)CCCCC2)c([N+](=O)[O-])cc1OC | inactive: 92.7% |
| COc1cccc(C(=O)NCC2(N3CCCCC3)CCCCC2)c1 | inactive: 105% |
| COc1ccc(Cl)cc1C(=O)NCC1(N(C)C)CCCCC1 | inactive: 107% |
| O=C(NCC1(N2CCCCC2)CCCCC1)c1cccc(Cl)c1 | inactive: 108% |
